In ChEMBL document CHEMBL6153118, “Structure Optimization of Natural Product Catalpol to Obtain Novel and Potent Analogs against Heart Failure” (J Med Chem, 2025) one finds t1/2 data, which are given here for one compound.

The nature of this series: Metabolic stability in human liver microsomes assessed as half life measured for 5 to 60 mins in presence of NADPH by LC-MS/MS analysis. The settings on record: time 5-60 min. It counts as ADME, Microsome. In general terms: Microsomes from liver hold many membrane-bound enzymes, among them those of drug oxidation.

Take `O=C(O)Cc1ccccc1Nc1c(Cl)cccc1Cl` [DICLOFENAC]: the t1/2 is 6.2 min.
